In patent publication US20250289861A1 (IMMUNOFORGE, published 2025):
“And” between values parts separate entries of the source, which are not always exact repeats. Identical values can stand only once.

Molecular target: GLP1R on CHO-K1 GLP1R cells (cAMP Hunter Liraglutide bioassay kit)
Test: cell-based or functional assay

## Exendin-4 (positive control) (from UniProt P26349) (peptide)
  EC50 (pM), cAMP assay on CHO-K1 GLP1R cells (cAMP Hunter Liraglutide bioassay kit): 5 pM and 8 pM
